The assay has as its target human PDHK2 (hPDHK2) (Homo sapiens (Human), UniProt Q15119). Nature of the assay: Inhibitory action of PDHK2 activity (PDH/hPDHK2 complex, residual PDH activity by NADH absorbance at 340 nm). Particulars: read-out: hPDHK2 IC50; FLAG-tagged recombinant hPDHK2 with porcine heart PDH complex; PDHK reaction 45 min at room temperature. The method, then:
In the case of human PDHK2 (hPDHK2, NCBI Reference Database Accession number NM_002611.4), modified hPDHK2 cDNA wherein FLAG-Tag sequence was added to the N terminal of hPDHK2 cDNA clone (pReceiver-M01/PDK2-GeneCopoeia) as the base was prepared by polymerase chain reaction (PCR) and ligated to the NdeI/EcoRI site of pET-17b vector (Merck KGaA, Catalog Number 69663-3). The recombinant construct was transformed into Escherichia coli DH5a. The recombinant clones were identified, and plasmid DNA was isolated and subjected to the DNA sequence analysis. One clone which had the expected nucleic acid sequence was selected for expression work.
For expression of hPDHK2 activity, Escherichia coli strain BL21(DE3) cells (Merck KGaA, Catalog Number 69450-4) were transformed with the pET17b vector containing modified hPDHK2 cDNA. The Escherichia coli were grown to an optical density 0.6 ([…]) at 30° C. Protein expression was induced by the addition of 500 μmol/L isopropyl-β-thiogalactopyranoside. The Escherichia coli were cultured at 20° C. for 17 to for 18 hr and harvested by centrifugation. The harvested Escherichia coli was resuspended in a suspension buffer (20 mmol/L HEPES-NaOH, 500 mmol/L sodium chloride, 1% ethylene glycol, 0.1% Pluronic (registered trademark) F-68 (pH 8.0), cOmplete, EDTA-free (Roche) (pH 8.0)), and disrupted by a microfluidizer M-110H (MIZUHO INDUSTRIAL CO., LTD.). […]

Usually IC50 stands for the concentration at which inhibition is half-maximal.

For the compound `C[C@H]1Cn2nc(C34CCC(C(C)(C)O)(CC3)OC4)cc2-c2cnc([C@@](C)(O)C(F)(F)F)n21`, the 50% inhibitory concentration (IC50) came out at 32.5 nM.

The values above are taken from US20240417406A1, “NITROGEN-CONTAINING TRICYCLIC COMPOUND AND PHARMACEUTICAL USE THEREOF” (JAPAN TOBACCO INC., priority 2021, published 2024).
